Reference: ChEMBL document CHEMBL4406853 (Eur J Med Chem, 2019)

Chains of the proteins cited; added tags and fusions are not shown.
UniProt P35372, whole entry, looked up: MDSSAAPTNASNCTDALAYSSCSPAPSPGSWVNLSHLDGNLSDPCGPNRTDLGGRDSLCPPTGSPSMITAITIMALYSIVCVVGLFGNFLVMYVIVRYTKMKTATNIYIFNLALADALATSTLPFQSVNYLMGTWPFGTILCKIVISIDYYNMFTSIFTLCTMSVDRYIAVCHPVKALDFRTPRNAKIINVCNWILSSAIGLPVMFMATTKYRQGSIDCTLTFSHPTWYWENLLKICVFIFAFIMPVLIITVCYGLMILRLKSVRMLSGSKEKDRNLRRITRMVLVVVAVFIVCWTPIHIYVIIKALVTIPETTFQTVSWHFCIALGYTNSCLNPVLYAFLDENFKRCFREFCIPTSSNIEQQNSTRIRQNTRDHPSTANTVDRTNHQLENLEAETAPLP

Target: Mu-type opioid receptor (Homo sapiens, UniProt P35372)
Assay: Inhibition of mu opioid receptor (unknown origin) assessed as reduction in intracellular cAMP accumulation relative to control

In the case of C[C@@H](Cc1ccsc1)NC(=O)NC[C@H](Cc1ccccc1)N(C)C, the Emax is reported as 76%.
